Data taken from patent US20220211718A1, “BCL-2 INHIBITORS FOR USE IN THE TREATMENT OF A BCL-2 MEDIATED CANCER CARRYING THE GLY101VAL MUTATION” (LES LABORATOIRES SERVIER, priority 2019, published 2022).

Key:
Type in all cases: binding
Bcl-2 Gly101Val mutant [1] = target: T1, Bcl-2 Gly101Val mutant (Homo sapiens, UniProt P10415, G101V); assay: Fluorescence quenching assay (PUMA peptide displacement), Example 1; conditions: 1 nM protein, 100 nM PUMA peptide, 2 hours at room temperature, read-out: Bcl-2 Gly101Val mutant cKi mean
Experimental: (§1) An 11-point serial dilution of each compound was prepared in DMSO, the final buffer conditions were 10 mM 4-(2-hydroxyethyl)-1-piperazineethanesulfonic acid [HEPES], 150 mM NaCl, 0.05% Tween 20, pH 7.4 and 5% DMSO.

Bcl-2 wild-type protein = Bcl-2 wild-type protein (Homo sapiens, UniProt P10415); assay: as above; conditions: 1 nM protein, 50 nM PUMA peptide, 2 hours at room temperature, read-out: Bcl-2 wild-type cKi mean
Experimental: as §1

Bcl-2 Ala113Gly mutant = Bcl-2 Ala113Gly mutant (Homo sapiens, UniProt P10415, A113G); assay: Fluorescence quenching assay (PUMA quench reagent displacement), Example 4; conditions: read-out: Bel-2 Ala113Gly Mutant K1 mean
Description: (§2) […] […] […] […] […] […] […] […] […] […] […] […] […] […] […] […] […] […] […] […] […] […] […] […] […] […] […]

Bcl-2 Arg129Leu mutant = Bcl-2 Arg129Leu mutant (Homo sapiens, UniProt P10415, R129L); assay: as above; conditions: read-out: Bel-2 Arg129Leu mutant K1 mean
Description: as §2

Bcl-2 Asp103Glu mutant = Bcl-2 Asp103Glu mutant (Homo sapiens, UniProt P10415, D103E); assay: as above; conditions: 50 nM peptide, about 2 hours at 18° C., cKi for Compound A and B, eKi (estimated) for ABT-199 in most cases, read-out: Bel-2 Asp103Glu mutant K1 mean
Description: as §2

Bcl-2 Asp103Tyr mutant = Bcl-2 Asp103Tyr mutant (Homo sapiens, UniProt P10415, D103Y); assay: as above; conditions: 50 nM peptide, about 2 hours at 18° C., ABT-199 inactive @1 μM, read-out: Bel-2 Asp103Tyr mutant K1 mean
Description: as §2

Bcl-2 Asp103Val mutant = Bcl-2 Asp103Val mutant (Homo sapiens, UniProt P10415, D103V); assay: as above; conditions: 50 nM peptide, about 2 hours at 18° C., cKi for Compound A and B, eKi (estimated) for ABT-199 in most cases, read-out: Bel-2 Asp103Val mutant K1 mean
Description: as §2

Bcl-2 Gly101Val mutant [2] = target: T1, Bcl-2 Gly101Val mutant; assay: as above; conditions: 100 nM peptide, about 2 hours at 18° C., cKi for Compound A and B, eKi (estimated) for ABT-199 in most cases, read-out: Bel-2 Gly101Val mutant K1 mean
Description: as §2

Ki (Bcl-2 Gly101Val mutant [1]): 23.7 nM
Ki (Bcl-2 wild-type protein): 1.2 nM
Ki (Bcl-2 Ala113Gly mutant): 7.5 nM
Ki (Bcl-2 Arg129Leu mutant): 3.3 nM
Ki (Bcl-2 Asp103Glu mutant): 2.3 nM
Ki (Bcl-2 Asp103Tyr mutant): 5.6 nM
Ki (Bcl-2 Asp103Val mutant): 3.7 nM
Ki (Bcl-2 Gly101Val mutant [2]): 23 nM
Compound: O=C(c1cc(-c2cc3c(cc2C(=O)N2Cc4ccccc4C[C@H]2CN2CCOCC2)OCO3)n2c1CCCC2)N(c1ccccc1)c1ccc(O)cc1 [Compound A, N-(4-hydroxyphenyl)-3-{6-[((3S)-3-(4-morpholinylmethyl)-3,4-dihydro-2(1H)-isoquinolinyl)carbonyl]-1,3-benzodioxol-5-yl}-N-phenyl-5,6,7,8-tetrahydro-1-indolizine carboxamide]
